PMC12259270, “Sensory neuron–expressed FGF13 controls nociceptive signaling in diabetic neuropathy models” (The Journal of Clinical Investigation, 2025)

Sequences of proteins named here, by UniProt entry; tags and fusion partners are left off. Residues count along the entry.
UniProt Q15858, 1-1977 isoform 3: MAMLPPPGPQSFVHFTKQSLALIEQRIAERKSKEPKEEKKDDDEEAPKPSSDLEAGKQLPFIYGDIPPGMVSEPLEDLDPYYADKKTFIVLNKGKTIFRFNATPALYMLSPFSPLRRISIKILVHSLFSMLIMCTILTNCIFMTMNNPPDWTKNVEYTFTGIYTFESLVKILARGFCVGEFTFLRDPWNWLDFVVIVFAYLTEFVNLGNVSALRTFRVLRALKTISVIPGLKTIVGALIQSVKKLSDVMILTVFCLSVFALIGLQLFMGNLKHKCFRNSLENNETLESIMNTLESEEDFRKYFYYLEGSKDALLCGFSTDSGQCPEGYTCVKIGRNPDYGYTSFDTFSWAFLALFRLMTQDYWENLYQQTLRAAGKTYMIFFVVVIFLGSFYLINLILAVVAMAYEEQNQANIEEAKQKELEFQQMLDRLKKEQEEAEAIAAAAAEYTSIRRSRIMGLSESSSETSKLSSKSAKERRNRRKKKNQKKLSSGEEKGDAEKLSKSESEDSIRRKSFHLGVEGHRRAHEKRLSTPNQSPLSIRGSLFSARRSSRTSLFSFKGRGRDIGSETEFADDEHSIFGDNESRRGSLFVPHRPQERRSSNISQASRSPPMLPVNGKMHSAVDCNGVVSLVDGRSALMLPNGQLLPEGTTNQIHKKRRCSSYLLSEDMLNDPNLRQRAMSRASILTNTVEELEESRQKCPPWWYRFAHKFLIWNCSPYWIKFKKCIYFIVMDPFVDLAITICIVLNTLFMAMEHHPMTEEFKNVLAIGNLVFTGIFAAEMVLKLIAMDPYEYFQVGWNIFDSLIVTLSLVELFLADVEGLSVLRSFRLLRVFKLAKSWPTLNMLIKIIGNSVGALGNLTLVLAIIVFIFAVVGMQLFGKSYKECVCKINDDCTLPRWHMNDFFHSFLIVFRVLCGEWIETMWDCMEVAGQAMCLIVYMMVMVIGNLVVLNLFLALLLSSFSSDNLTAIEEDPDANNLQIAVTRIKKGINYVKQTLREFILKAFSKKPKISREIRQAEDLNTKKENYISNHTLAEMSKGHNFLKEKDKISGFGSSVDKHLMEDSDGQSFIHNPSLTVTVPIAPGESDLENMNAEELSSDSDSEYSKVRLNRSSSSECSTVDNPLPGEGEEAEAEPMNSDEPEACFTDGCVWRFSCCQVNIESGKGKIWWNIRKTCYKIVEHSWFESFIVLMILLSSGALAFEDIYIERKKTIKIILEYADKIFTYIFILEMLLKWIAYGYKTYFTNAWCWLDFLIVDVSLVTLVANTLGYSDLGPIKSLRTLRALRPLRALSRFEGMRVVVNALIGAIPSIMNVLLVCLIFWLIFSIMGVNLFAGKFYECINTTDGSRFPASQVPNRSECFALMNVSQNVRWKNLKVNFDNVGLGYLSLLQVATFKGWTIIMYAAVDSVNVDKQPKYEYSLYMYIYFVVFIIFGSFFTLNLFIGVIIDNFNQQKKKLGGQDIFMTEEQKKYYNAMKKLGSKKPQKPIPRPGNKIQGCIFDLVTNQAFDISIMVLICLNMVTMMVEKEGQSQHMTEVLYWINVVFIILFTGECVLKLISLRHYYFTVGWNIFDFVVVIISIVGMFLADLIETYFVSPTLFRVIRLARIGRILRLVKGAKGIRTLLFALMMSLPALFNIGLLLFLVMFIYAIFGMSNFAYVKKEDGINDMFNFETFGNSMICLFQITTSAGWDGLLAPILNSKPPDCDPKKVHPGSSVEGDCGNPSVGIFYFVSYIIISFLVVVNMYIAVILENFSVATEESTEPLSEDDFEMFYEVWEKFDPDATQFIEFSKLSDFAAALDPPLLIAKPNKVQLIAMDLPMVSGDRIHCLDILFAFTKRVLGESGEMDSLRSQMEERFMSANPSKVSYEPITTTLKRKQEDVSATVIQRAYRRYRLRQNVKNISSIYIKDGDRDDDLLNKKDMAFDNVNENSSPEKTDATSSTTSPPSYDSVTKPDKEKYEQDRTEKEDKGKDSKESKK
UniProt Q92913, 1-192 partner limits assumed: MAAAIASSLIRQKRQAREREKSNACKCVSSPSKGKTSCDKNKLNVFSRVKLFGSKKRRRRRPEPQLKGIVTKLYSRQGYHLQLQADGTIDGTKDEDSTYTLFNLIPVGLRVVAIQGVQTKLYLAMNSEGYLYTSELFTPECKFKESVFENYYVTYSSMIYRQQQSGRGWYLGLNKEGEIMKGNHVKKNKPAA

Target: human Nav1.7 (Homo sapiens, UniProt Q15858)
Experiment: Whole-cell patch-clamp, HEK293 cells stably expressing human Nav1.7 with GFP or FGF13-GFP
Type: cell-based
Settings: Fig 1F; FGF13-GFP; Log (conc(M) -4); FGF13R110A

How did the “peak INa density, dose response, single cells” value turn out when `COC(=O)[C@@H](NC(=O)[C@H](CCC(=O)OC(C)(C)C)NC(=O)[C@H](CC(C)C)NC(=O)[C@@H]1CCCN1C(=O)OCc1ccccc1)C(C)C` was run?
Its value is -16.0106 pA/pF.
